ChEMBL document CHEMBL1155708, “Isoaurostatin, a novel topoisomerase inhibitor produced by Thermomonospora alba” (J Nat Prod, 2001)

Tests used:
Format in all cases: cell-based
DNA topoisomerase 1 [1] = molecular target: T1, DNA topoisomerase 1 (Homo sapiens, UniProt P11387); assay: Inhibition topoisomerase 1 in human A549 cells assessed as conversion of supercoiled pBR322 DNA to relaxed form
T1 sequence (P11387 whole entry): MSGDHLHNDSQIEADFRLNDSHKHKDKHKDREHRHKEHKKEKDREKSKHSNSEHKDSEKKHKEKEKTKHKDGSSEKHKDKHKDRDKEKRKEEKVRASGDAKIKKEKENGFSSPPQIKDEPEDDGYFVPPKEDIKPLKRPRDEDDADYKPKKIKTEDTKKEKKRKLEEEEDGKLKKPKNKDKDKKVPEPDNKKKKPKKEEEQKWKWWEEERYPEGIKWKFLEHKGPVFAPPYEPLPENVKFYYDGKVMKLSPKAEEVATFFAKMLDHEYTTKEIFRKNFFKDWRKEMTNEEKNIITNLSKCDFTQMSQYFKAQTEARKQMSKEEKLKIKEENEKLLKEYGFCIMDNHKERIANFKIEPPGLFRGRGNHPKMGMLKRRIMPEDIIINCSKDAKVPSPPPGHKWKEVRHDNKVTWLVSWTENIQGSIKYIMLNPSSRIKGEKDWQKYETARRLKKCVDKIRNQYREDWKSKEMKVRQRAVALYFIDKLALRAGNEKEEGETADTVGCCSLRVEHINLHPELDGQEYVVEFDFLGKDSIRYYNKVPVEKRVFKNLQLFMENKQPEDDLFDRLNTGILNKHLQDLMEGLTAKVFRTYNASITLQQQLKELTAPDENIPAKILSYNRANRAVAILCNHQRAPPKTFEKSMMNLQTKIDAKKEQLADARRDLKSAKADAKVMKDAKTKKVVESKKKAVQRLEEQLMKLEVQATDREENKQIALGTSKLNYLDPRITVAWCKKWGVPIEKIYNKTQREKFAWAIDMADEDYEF
How it was run: (§1)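 Topo I source: crude extract from cells grown 5 days, PBS-washed and pelleted (1 × 10^6 cells), then lysed 30 min on ice in Tris-HCl pH 7.5 buffer with MgCl2, EGTA, AEBSF, β-mercaptoethanol, 0.5% CHAPS and 10% glycerin. The cleared supernatant relaxes supercoiled pBR322 DNA. Products are resolved on agarose gel and scored by densitometry.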

DNA topoisomerase 1 [2] = molecular target: T1, DNA topoisomerase 1; assay: Inhibition topoisomerase 1 in human COLO201 cells assessed as conversion of supercoiled pBR322 DNA to relaxed form; how it was run: as §1
DNA topoisomerase 1 [3] = molecular target: T1, DNA topoisomerase 1; assay: Inhibition topoisomerase 1 in human HeLa cells assessed as conversion of supercoiled pBR322 DNA to relaxed form; how it was run: as §1

IC50 (DNA topoisomerase 1 [1]): > 200 µM
IC50 (DNA topoisomerase 1 [2]): > 200 µM
IC50 (DNA topoisomerase 1 [3]): > 200 µM
SMILES: COc1cccc2c1C(=O)c1c(O)c3c(c(O)c1C2=O)C[C@@](O)(C(=O)CO)C[C@@H]3O[C@H]1C[C@H](N)[C@H](O)[C@H](C)O1 [DOXORUBICIN]
